The subject of series [1] is HER2-overexpressing human NSCLC cell line Calu-3. As to the kind of experiment: Calu-3 subcutaneous xenograft, zongertinib with trastuzumab and/or pertuzumab. The class given is in vivo, CB-17/Icr-Prkdc^scid mice. As to conditions: day 42; tumors regressed/total (partial response); zongertinib 20 mg/kg qdx42 p.o.; trastuzumab 20 mg/kg q7dx6 i.p.; pertuzumab 20 mg/kg q7dx6 i.p.; alone or combined. On the procedure:
The study is performed in human NSCLC cell line Calu-3 grown as subcutaneous xenografts in CB-17/Icr-Prkdc^scid mice.
Calu-3 is a HER2-overexpressing human NSCLC cell line that can be obtained from ATCC (lot 614492062). […] Cultures are split once weekly with a ratio of 1:1.5-1:2.
Mice in the control group are treated with vehicle, i.e.: • (i) 0.5% Natrosol, administered once daily for the duration of the treatment intragastrally by gavage needle with a volume of 10 ml/kg body weight; and • (ii) saline (0.9%), administered once every week intraperitoneally with a volume of 10 ml/kg.

Series [2] has as its system HER2-overexpressing human breast cancer cell line SUM190PT. The class given is in vivo. How it is done: The study is performed in human breast cancer cell line SUM190PT grown as subcutaneous xenografts in NMRI-Foxn1^nu mice. Day 1 was the first day, day 21 the last day of treatment and final day of analysis.
Cells are obtained and cultured as described in Example 8 (see paragraph 8.1.2).
Capecitabine can be purchased from Roche Pharma AG. Capecitabine is suspended with 0.5% Natrosol and administered intragastrally with a volume of 10 ml/kg.
Tumor volumes and side effects are monitored as described in Example 1 (see paragraph 1.1.6), except that control animals are sacrificed when the median tumor volume of the group reaches a size of approximately 540 mm^3.
(§1) The statistical evaluation of the tumor volume and the body weight is conducted on day 21 (last day of the study). Apart from this, statistical analysis was performed as described in Example 1 (see paragraph 1.1.7), with no evaluation of tumor growth after stop of treatment.

Series [3] concerns parental NCI-N87 cells. Nature of the series: Proliferation assay (CellTiter Glo), parental NCI-N87 cells. It is filed as cell-based, human. The following applies: 5 days of incubation, in vitro. On the procedure:
To generate T-DXd-resistant models, the NCI-N87 model is used and tumor-bearing mice are treated with three cycles of T-DXd, tumors that regrow are harvested and then tumor cells are cultivated in vitro, as shown in FIG. 17.
(§2) Per well, 1000 cells are seeded in 40 μL medium in white, sterile 384-well culture plates (TC-treated; PerkinElmer #6007680) and incubated overnight in a humidified incubator at 37° C. and 5% CO2. 0.1% DMSO-control or serial compound dilution in triplicates are added. T-DXd is diluted in 0.3% Tween solution and added to the cells. After 5 days of incubation with test compounds, the cells plates are measured upon addition of CellTiter Glo Luminescent Cell Viability Reagent (Promega, #G9243) to assess cell viability. The plates are placed on a shaker for five minutes and additionally incubated for 10 minutes at room temperature to induce cell lysis and to stabilize the luminescent signal. The luminescent signal of each well is measured in an EnSpire Multilabel Plate Reader 658 (PerkinElmer). The dose response curves are fit and visualized using Boehringer Ingelheim's proprietary software MegaLab and PRISM (GraphPad Inc.).

Series [4] has as its system HER2-overexpressing human gastric cancer cell line NCI-N87. Nature of the series: NCI-N87 subcutaneous xenograft, zongertinib with T-DXd. It is filed as in vivo, NMRI-Foxn1^nu mice. On the procedure: The study is performed in human gastric cancer cell line NCI-N87 grown as subcutaneous xenografts in NMRI-Foxn1^nu mice.
NCI-N87 is a HER2-overexpressing human gastric cancer cell line that can be obtained from the American Type Culture Collection (ATCC #CRL-5822). Cells are cultured in T175 tissue culture flasks at 37° C. and 5% CO2. The medium used is RPMI 1640 (ATCC #30-2001) supplemented with 10% fetal calf serum (FCS) (Thermo Scientific #SH 30084.03).
Mice are 6- to 10-week-old female NMRI-Foxn1^nu purchased from Taconic, Denmark. After arrival at the animal facility, mice are allowed to adjust to conditions at least for 5 days before they are used for the experiment. They are housed in Macrolon® type III cages in groups of 8 to 10 under pathogen-free, controlled and standardized conditions at 21.5±1.5° C. temperature, 55±10% humidity and 12-h light-dark cycle. Standardized diet (PROVIMI KLIBA) and autoclaved tap water are provided ad libitum. Subcutaneous microchips implanted under isoflurane anaesthesia are used to identify each mouse. […]
Tumor volumes are measured three times a week with a caliper. The volume of each tumor [in mm^3] is calculated according to the formula: […]
To monitor side effects of treatment, mice are inspected daily for abnormalities and body weight is determined three times a week. […]

The subject of series [5] is T-DXd-resistant NCI-N87 cells. As to the kind of experiment: Proliferation assay (CellTiter Glo), T-DXd resistant NCI-N87 cells. It is filed as cell-based, human. As to conditions: 5 days of incubation, in vitro. How it is done:
as §2, with “T-DXd is diluted in 0.3% Tween solution and added to the cells.” left out

The test system of series [6] is HER2-overexpressing human ovarian cell line SK-OV-3. Nature of the series: SK-OV-3 subcutaneous xenograft, zongertinib with T-DXd. The following applies: day 20; tumors regressed/total (partial response); zongertinib 10 mg/kg qdx20 p.o.; T-DXd 7 mg/kg q21dx1 i.v.; alone or combined. It is filed as in vivo, NMRI-Foxn1^nu mice. On the procedure: The study is performed in human ovarian cancer cell line SK-OV-3 grown as subcutaneous xenografts in NMRI-Foxn1^nu mice.
100 μl cell suspension containing 5×10^6 cells is injected subcutaneously into the right flank of mice (1 site per mouse).

Series [7] concerns HER2-overexpressing human breast cancer cell line HCC1954. On the procedure:
Day 1 was the first day, day 21 the last day of treatment and final day of analysis.
Cells are cultured in T75, T175 and 5-Layer tissue culture flasks at 37° C. and 5% CO2.
as §1

Series [8] has as its system HER2-overexpressing human breast cancer cell line BT-474. The class given is in vivo. The following applies: alone or combined. How it is done:
The study is performed in human breast cancer cell line BT-474 grown as orthotopic xenografts in NMRI-Foxn1^nu mice. Day 1 was the first day, day 42 the last day of treatment and final day of analysis.
BT-474 is a HER2-overexpressing human breast cancer cell line that can be obtained from ATCC (lot #61136823). Cells are cultured in T75, T175 and 5-Layer tissue culture flasks at 37° C. and 5% CO2. The medium used is Hybri-Care (ATCC, 46-X) supplemented with 1.5 g/L sodium bicarbonate (GIBCO, Ref.: 25080-060) and 10% FCS (Cytiva HyClone Characterized FBS, SH30084.03n). Cultures are split twice weekly with a ratio of 1:2-1:3.
To establish subcutaneous tumors, BT-474 cells are harvested by centrifugation, washed and resuspended in PBS+5% FCS at 5×10^7 cells/ml. […] cell suspension containing 5×10^6 cells is injected orthotopically into the right mammary fat pad of isoflurane anesthetized mice (1 site per mouse).
Pertuzumab can be purchased from Roche Pharma AG. Pertuzumab is diluted with saline (0.9%) and administered intraperitoneally with a volume of 10 ml/kg.
Mice in the control group are treated with vehicle, i.e.: • (i) 0.5% Natrosol, administered once daily for the duration of the treatment intragastrally by gavage needle with a volume of 10 ml/kg body weight; and • (ii) saline (0.9%), administered once every 3 weeks intravenously into the tail vein with a volume of 5 ml/kg; and • (iii) saline (0.9%), administered once every week intraperitoneally with a volume of 10 ml/kg.
Tumor volumes and side effects are monitored as described in Example 1 (see paragraph 1.1.6), except that control animals are sacrificed when the median tumor volume of the group reaches a size of approximately 470 mm^3.
The statistical evaluation of the tumor volume and the body weight is conducted on day 42 (last day of the study). Apart from this, statistical analysis was performed as described in Example 1 (see paragraph 1.1.7), with no evaluation of tumor growth after stop of treatment.

The values that follow come from US20250228858A1, “ANTI-CANCER COMBINATION THERAPY” (Boehringer Ingelheim International GmbH, priority 2023, published 2025).

With trastuzumab, the “Regressions >30%” value in series [1] is 0/10; in series [2] (day 21, tumors regressed/total (partial response), zongertinib 10 mg/kg qdx21 p.o., capecitabine 400 mg/kg qdx21 p.o., trastuzumab 20 mg/kg q7dx3 i.p., alone or combined) it was 0/8. For the same substance, in series [2] (day 21, zongertinib 10 mg/kg qdx21 p.o., capecitabine 400 mg/kg qdx21 p.o., trastuzumab 20 mg/kg q7dx3 i.p., alone or combined), the TGI is reported as −22%. For the same substance, the “tolerability, body weight compared to controls” value in series [2] (treatment groups of Table 16) is given as “significant weight gain compared to controls”. Moreover, in series [2] (zongertinib 10 mg/kg qdx21, capecitabine 400 mg/kg qdx21, trastuzumab 20 mg/kg q7dx3, alone or triple combination), the “effect on tumor growth (median tumor volumes over time)” value is recorded as “did not even slow down tumor growth”.

In the case of “trastuzumab deruxtecan [T-DXd, reference compound]”, the “sensitivity (dose response, cell viability)” value is given as “sensitive” in series [3] and “resistant” in series [5]. The TGI in series [4] (day 22, zongertinib 20 mg/kg qdx21 p.o., T-DXd 3 mg/kg q21dx1 i.v., alone or combined) is given as 93%; in series [7] (day 21, zongertinib 20 mg/kg qdx21 p.o., T-DXd 1 mg/kg q21dx1 i.v., pertuzumab 20 mg/kg q7dx3 i.p., alone or combined), 84%; in series [8] (day 42, zongertinib 10 mg/kg qdx42 p.o., T-DXd 1 mg/kg q21dx2 i.v., pertuzumab 20 mg/kg q7dx6 i.p.), 16%. For the same substance, the “effect on tumor growth (median tumor volumes over time)” value in series [4] (zongertinib 10 or 20 mg/kg/day, T-DXd 3 mg/kg once, 21-day experiment) is “shrank tumors, but tumors started to regrow at the end of the 21-day experiment”; in series [8] (zongertinib 10 mg/kg qdx42, T-DXd 1 mg/kg q21dx2, pertuzumab 20 mg/kg q7dx6), “had a limited effect on tumor growth”. Besides, the “Regressions >30%” value is given as 0/8 in series [6]; 0/8 in series [7] (tumors regressed/total (partial response), zongertinib 20 mg/kg qdx21 p.o., T-DXd 1 mg/kg q21dx1 i.v., pertuzumab 20 mg/kg q7dx3 i.p., alone or combined); 0/8 in series [8] (day 42, tumors regressed/total (partial response), zongertinib 10 mg/kg qdx42 p.o., T-DXd 1 mg/kg q21dx2 i.v., pertuzumab 20 mg/kg q7dx6 i.p.). In series [7] (treatment groups of Table 24), the “tolerability, body weight gain compared to the controls” value was “statistically significant less body weight gain”.
